From patent publication US20190184025A1
*1 amine or outer side, *2 acyl side, *3 side chain or, on linkers, in order; H or OH if unused. Bridges are numbered along the chain shown (N, C = ends). Where no end group is shown, it is not given here. [ ]: non-standard residue; d: D form. Sar10 = ten sarcosine residues in a row, CN(CC(=O)N(C)CC(=O)N(C)CC(=O)N(C)CC(=O)N(C)CC(=O)[*:2])C(=O)CN(C)C(=O)CN(C)C(=O)CN(C)C(=O)CN(C)C(=O)CN(C)[*:1]; TATA = O=C(CC[*:1])N1CN(C(=O)CC[*:2])CN(C(=O)CC[*:3])C1; Hyp = O=C(O)[C@@H]1C[C@@H](O)CN1; hArg = N=C(N)NCCCC[C@H](N)C(=O)O; βAla = NCCC(=O)O

Sequences of proteins named here, by UniProt entry; tags and fusion partners are left off. Residues count along the entry.
UniProt P29317, 24-537: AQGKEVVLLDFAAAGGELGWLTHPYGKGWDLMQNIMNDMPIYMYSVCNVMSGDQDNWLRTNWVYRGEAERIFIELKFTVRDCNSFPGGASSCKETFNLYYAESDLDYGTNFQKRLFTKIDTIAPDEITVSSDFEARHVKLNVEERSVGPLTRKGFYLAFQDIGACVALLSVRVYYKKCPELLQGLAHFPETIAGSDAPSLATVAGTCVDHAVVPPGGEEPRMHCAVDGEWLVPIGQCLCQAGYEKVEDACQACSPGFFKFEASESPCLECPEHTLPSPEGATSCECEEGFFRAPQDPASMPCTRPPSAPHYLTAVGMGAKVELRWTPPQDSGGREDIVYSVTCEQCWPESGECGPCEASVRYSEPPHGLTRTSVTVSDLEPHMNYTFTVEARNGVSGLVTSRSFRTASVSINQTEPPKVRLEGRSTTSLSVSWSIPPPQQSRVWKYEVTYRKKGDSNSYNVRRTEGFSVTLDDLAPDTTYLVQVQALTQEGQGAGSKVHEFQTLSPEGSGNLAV
UniProt Q03145, 26-538: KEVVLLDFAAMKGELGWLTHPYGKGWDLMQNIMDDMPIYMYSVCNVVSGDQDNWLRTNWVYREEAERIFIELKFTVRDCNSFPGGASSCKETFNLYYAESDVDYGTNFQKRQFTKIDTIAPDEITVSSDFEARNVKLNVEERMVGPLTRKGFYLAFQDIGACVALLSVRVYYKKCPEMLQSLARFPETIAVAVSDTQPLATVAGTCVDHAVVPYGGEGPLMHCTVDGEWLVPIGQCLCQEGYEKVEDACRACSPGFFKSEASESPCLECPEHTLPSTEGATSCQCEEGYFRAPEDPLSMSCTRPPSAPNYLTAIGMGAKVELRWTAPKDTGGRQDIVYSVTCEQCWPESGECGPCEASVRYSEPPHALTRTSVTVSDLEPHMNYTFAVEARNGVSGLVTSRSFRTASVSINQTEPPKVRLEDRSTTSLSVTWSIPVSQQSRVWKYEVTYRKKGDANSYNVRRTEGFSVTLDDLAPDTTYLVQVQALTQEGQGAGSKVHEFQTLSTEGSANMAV

B1: BCY6099 (peptide)
peptide: [βAla][Sar10]A[hArg]DC[Hyp]LVNPLCLHP[dD]W[hArg]C-NH2
modifications: linker 6-13-20 via TATA; N-terminus assumed
SMILES: CC(C)C[C@@H]1NC(=O)[C@@H]2CSCCC(=O)N3CN(CN(C3)C(=O)CCSC[C@H](NC(=O)[C@H](CC(=O)O)NC(=O)[C@H](CCCCNC(=N)N)NC(=O)[C@H](C)NC(=O)CN(C)C(=O)CN(C)C(=O)CN(C)C(=O)CN(C)C(=O)CN(C)C(=O)CN(C)C(=O)CN(C)C(=O)CN(C)C(=O)CN(C)C(=O)CN(C)C(=O)CCN)C(=O)N3C[C@H](O)C[C@H]3C(=O)N[C@@H](CC(C)C)C(=O)N[C@@H](C(C)C)C(=O)N[C@@H](CC(N)=O)C(=O)N3CCC[C@H]3C(=O)N[C@@H](CC(C)C)C(=O)N2)C(=O)CCSC[C@@H](C(N)=O)NC(=O)[C@H](CCCCNC(=N)N)NC(=O)[C@H](Cc2c[nH]c3ccccc23)NC(=O)[C@@H](CC(=O)O)NC(=O)[C@@H]2CCCN2C(=O)[C@H](Cc2c[nH]cn2)NC1=O
B2: BCY6136 (peptide)
peptide: [βAla][Sar10]A[hArg]DC[Hyp]LVNPLCLHP[dD]W[hArg]C
modifications: linker 6-13-20 via TATA; not fully specified (C-terminus); also: ValCit-MMAE linker-toxin attached, site not given here

Tests used:
[1] = molecular target: Human EphA2 (Ecto), C-terminal polyHis (Human) (UniProt P29317); assay: FP competition against Reference Compound C (Study 2)
[2] = molecular target: Mouse EphA2 (Ecto), C-terminal polyHis (Mouse) (UniProt Q03145); assay: as above

Row | Binder | Ki [1] [nM] | Ki [2] [nM]
1 | B1 | 2.7 | 4.5
2 | B2 | 1.9 | 
